Target: T1, N-acylethanolamine-hydrolyzing acid amidase (Rattus norvegicus, UniProt Q5KTC7)
T1 sequence (Q5KTC7 whole entry): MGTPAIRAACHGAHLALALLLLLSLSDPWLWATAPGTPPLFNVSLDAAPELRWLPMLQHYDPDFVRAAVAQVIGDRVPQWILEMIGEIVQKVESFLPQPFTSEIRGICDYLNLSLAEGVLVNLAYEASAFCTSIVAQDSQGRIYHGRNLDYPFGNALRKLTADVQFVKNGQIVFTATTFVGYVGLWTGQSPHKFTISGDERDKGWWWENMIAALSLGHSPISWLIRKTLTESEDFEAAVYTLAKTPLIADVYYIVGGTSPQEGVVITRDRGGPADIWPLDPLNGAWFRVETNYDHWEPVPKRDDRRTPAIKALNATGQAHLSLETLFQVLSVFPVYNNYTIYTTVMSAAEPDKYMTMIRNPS
Experiment: Inhibition of rat NAAA

O=C(N[C@H]1CNC1=O)OCCCCC1CCCCC1 was tested. Which IC50 did it give?
Its IC50 is 13 nM.

Source: ChEMBL document CHEMBL4610086, “N-Acylethanolamine Acid Amidase (NAAA): Structure, Function, and Inhibition” (J Med Chem, 2020)
